The experiment has as its target T1, hSIRT1(229-516) (Homo sapiens, UniProt Q96EB6).
T1 construct: hSIRT1(229-516)
T1 sequence (Q96EB6 229-516): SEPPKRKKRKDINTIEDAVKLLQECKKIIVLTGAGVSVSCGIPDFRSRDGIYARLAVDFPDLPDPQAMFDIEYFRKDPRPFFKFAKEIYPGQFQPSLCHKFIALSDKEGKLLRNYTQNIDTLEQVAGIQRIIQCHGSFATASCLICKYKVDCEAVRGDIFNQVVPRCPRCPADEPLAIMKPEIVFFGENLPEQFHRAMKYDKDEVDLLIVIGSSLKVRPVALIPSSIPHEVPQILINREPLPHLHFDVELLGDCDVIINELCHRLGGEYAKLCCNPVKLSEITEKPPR
Briefly: Steady-state kinetics, PNC1/GDH coupled assay, in presence of CBS peptide. In kind it is biochemical. The method, then:
Final concentrations of the PNC1/GDH coupling system components used were 20 units/mL bovine GDH (Sigma-Aldrich), 1 uM yeast PNC1, 3.4 mM α-ketoglutarate, and 220 μM NADH or NADPH. An extinction coefficient of 6.22 mM^−1 cm^−1 and a pathlength of 0.81 cm was used to convert the absorbance at 340 nm to product concentration for the 150 uL reactions used. […] Quenched reactions were diluted 5-fold with 1:1 acetonitrile:methanol and spun at 5,000×g for 10 minutes to precipitate protein before being analyzed with an Agilent RapidFire 200 High-Throughput Mass Spectrometry System (Agilent, Wakefield, Mass.) coupled to an ABSciex API 4000 mass spectrometer fitted with an electrospray ionization source. The p53-based Ac-p53(W5) (Ac-RHKK^AcW-NH2) and FOXO-3a 21-mer (Ac-[…]^Ac[…]-NH2) peptides were obtained from Biopeptide, Inc. Deacetylation assays used the Ac-p53(W5) substrate unless otherwise noted.
Substrate KM determinations were performed by varying one substrate concentration at a fixed, saturating concentration of the second substrate. SIRT1 activation and inhibition assays were run in reaction buffer with 0.05% BSA at 25° C. and analyzed using the OAcADPr assay. Enzyme and compound were pre-incubated for 20 minutes before addition of substrates. […]

As to `CC[C@H](C)[C@H](NC(=O)[C@H](Cc1ccc(O)cc1)NC(=O)[C@H](CCCNC(=N)N)NC(=O)[C@H](CC(N)=O)NC(=O)[C@@H]1CCCN1C(=O)[C@@H]1CCCN1C(=O)[C@H](CC(C)C)NC(=O)[C@H](Cc1ccccc1)NC(=O)[C@H](CC(C)C)NC(=O)[C@H](Cc1ccc(O)cc1)NC(=O)[C@@H](N)CCC(N)=O)C(=O)N[C@@H](Cc1ccccc1)C(=O)N[C@@H](Cc1c[nH]cn1)C(=O)NCC(=O)N[C@@H](C)C(=O)N[C@@H](CCC(=O)O)C(=O)N[C@H](C(=O)N[C@@H](Cc1ccc(O)cc1)C(=O)N[C@@H](CO)C(=O)N[C@@H](CC(=O)O)C(=O)N[C@@H](CO)C(=O)N[C@@H](CCC(=O)O)C(=O)N[C@@H](CC(=O)O)C(=O)N[C@@H](CC(=O)O)C(=O)N[C@H](C(=O)O)C(C)C)C(C)C` [CBS peptide], the “lowering of the KM values for both peptide substrate and NAD+ of hSIRT1cc” value is 4-5 fold. Besides, the kcat (hSIRT1(229-516) in presence of the peptide, PNC1/GDH assay) stood at 0.54 ± 0.01 s⁻¹.

In general, kcat refers to the number of substrate molecules converted per active site and unit of time at saturation.

Source of the values: US9765075B2, “Substituted bridged urea analogs as sirtuin modulators” (GLAXOSMITHKLINE LLC, priority 2013, dated 2017).
